Laboratory results: ChEMBL document CHEMBL6083267, “Rational fragment-based design of compounds targeting the PWWP domain of the HRP family” (Eur J Med Chem, 2024)

Chains of the proteins cited; added tags and fusions are not shown. Lines headed by an entry give the natural chain unless they say otherwise; changes in a name come on top.
UniProt O75475: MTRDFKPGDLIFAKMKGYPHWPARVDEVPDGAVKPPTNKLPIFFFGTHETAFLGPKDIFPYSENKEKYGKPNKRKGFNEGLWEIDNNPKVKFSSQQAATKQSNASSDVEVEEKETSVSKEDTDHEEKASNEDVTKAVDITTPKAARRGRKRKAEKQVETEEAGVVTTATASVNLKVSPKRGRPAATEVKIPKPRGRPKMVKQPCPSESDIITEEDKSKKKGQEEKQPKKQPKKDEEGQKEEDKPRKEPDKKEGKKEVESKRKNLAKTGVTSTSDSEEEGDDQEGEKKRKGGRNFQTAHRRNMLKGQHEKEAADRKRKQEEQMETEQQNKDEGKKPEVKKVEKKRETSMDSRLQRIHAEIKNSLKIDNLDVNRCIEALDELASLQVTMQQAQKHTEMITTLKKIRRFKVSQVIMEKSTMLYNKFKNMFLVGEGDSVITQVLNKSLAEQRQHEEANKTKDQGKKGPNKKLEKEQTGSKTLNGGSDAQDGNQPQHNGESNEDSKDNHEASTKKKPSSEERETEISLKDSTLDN

Columns and labels:
[1] = target: T1, PC4 and SFRS1-interacting protein (Homo sapiens, UniProt O75475); conditions: dose 500.0 µM
[2] = target: T1, PC4 and SFRS1-interacting protein; conditions: dose 250.0 µM

Row | Compound | ΔTm [1] [°C] | ΔTm [2] [°C]
1 | NCc1cncc(Br)c1 | 0.58 | 
2 | CCS(=O)(=O)c1ccccc1NC(=O)COc1cccc(CC(=O)O)c1 |  | 0.17
3 | Nc1ccc(CNCc2cncc(Br)c2)cc1 |  | 1.55
4 | NC(=O)CCN1CCCC1c1ccccc1 (stereo unspecified) | 1.32 | 

Second part, the compound after the results:

Row | ΔTm [1] [°C] | ΔTm [2] [°C] | Compound
5 | 2.02 |  | CCS(=O)(=O)c1ccc(C2CCCCN2)cc1 (stereo unspecified)
6 | 0.52 |  | CCS(=O)(=O)c1ccccc1NC(=O)CCl
